Assay results: patent publication US20120295965A1, “FUSED THIOPHENES AS DUAL INHIBITORS OF EGFR/VEGFR AND THEIR USE IN THE TREATMENT OF CANCER” (priority 2009, published 2012)

Test system: mallotoxin response in HT29
Experiment: Epic label-free DMR biosensor cellular assay, hERG activator mallotoxin marker in HT29
Settings: MTX at 16 micromolar
Experimental: HT29 expresses VEGFR1 (Flt1 receptor), but not other VEGF receptors.
All cell lines were obtained from American Type Cell Culture (Manassas, Va.). The cell culture medium was as follows: (1) Dulbecco's modified Eagle's medium (DMEM) supplemented with 10% fetal bovine serum (FBS), 4.5 g/liter glucose, 2 mM glutamine, and antibiotics for human epidermoid carcinoma A431; and (2) McCoy's 5a Medium Modified supplemented with 10% FBS, 4.5 g/liter glucose, 2 mM glutamine, and antibiotics for human colorectal adenocarcinoma HT29.
Cells were typically grown using ˜1 to 2×10^4 cells per well at passage 3 to 15 suspended in 50 μl of the corresponding culture medium in the biosensor microplate, and were cultured at 37° C. under air/5% CO2 for ˜1 day. […]
For biosensor cellular assays, molecule solutions were made by diluting the stored concentrated solutions with the HBSS (1× Hanks balanced salt solution, plus 20 mM Hepes, pH 7.1), and transferred into a 384well polypropylene molecule storage plate to prepare a molecule source plate. […] Both the cell assay plate and the molecule and marker source plate(s) were then incubated in the hotel of the reader system. After ˜1 hr of incubation the baseline wavelengths of all biosensors in the cell assay microplate were recorded and normalized to zero. […]

“6H-Indeno[1,2-e]tetrazolo[1,5-b][1,2,4]triazin-6-one & 10H-Indeno[2,1-e]tetrazolo[1,5-b][1,2,4]triazin-10-one [dual PDK1/AKT/Flt1 pathway inhibitor]” was tested, and the “impact on DMR signal of MTX in HT29” value was “almost completely attenuated”.
